This experiment has as its target T1, MsCI4 (Magnetospirillum gryphiswaldense, UniProt A4TVL0).
T1 construct: gene MGR_0879; wild-type single-domain bacterial cereblon homologue; pETHis1a, E. coli C41(DE3); His tag removed with TEV; three monomers per asymmetric unit; structural zinc; RED-NHS amine-labelled for MST
T1 sequence (A4TVL0 1-124): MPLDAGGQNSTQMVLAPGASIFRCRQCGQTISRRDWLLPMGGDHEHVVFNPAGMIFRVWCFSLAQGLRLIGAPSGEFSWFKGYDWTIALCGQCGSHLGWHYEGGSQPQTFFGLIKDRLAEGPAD
Nature of the experiment: labelled microscale thermophoresis. The class given is binding. To be noted: read-out: MsCI4 (K d, μM) / Labelled MST. From the text:
labelled microscale thermophoresis on MsCI4
Background: MST reads how a fluorescent partner responds to local heating, with and without ligand.

Molecules are shown by their SMILES.

For `O=C1CC[C@H](N2C(=O)c3ccccc3C2=O)C(=O)N1` [Thalidomide], the Kd amounted to 6.68 ± 0.8 µM.
